Several values for one entry are separate records, joined by “and”; a condition that tells them apart may be missing. Equal entries are not always repeated. The list shows a part of the results, in another mix than the full data. Inconclusive results are not listed. For some of these results: Results with a measured potency or affinity are listed apart. Activity calls are given as the source filed them. Unless noted, the call rests on the fitted dose curve; in most records, active means well fitted curve in the direction sought with a large enough effect; inconclusive means small, poorly fitted or top-dose-only effect, or another doubt; inactive means no such curve, though single readings can be large; an effect the other way counts as inactive or inconclusive.
What was measured:
[1] = molecular target: Thyroid hormone receptor beta (Homo sapiens) (UniProt P10828); test: qHTS assay for small molecule antagonists of thyroid hormone receptor beta signaling (AID 588547; active means well fitted inhibition curve with a large enough effect in the signal ratio, with a control signal flat, not every such curve was filed as active; the % refers to the signal ratio); conditions: TR-UAS-bla HEK293, beta-lactamase ratio, antagonist mode, 18 h; stronger effect = lower value
How it was run: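 Inhibition of T3-driven (0.4nM final) beta-lactamase reporter activity was measured over 0.59 nM to 92 uM compound after 18 h at 37 C. The cells were GripTite HEK293 TR-UAS-bla in charcoal/dextran-stripped serum, with CCF4 ratio read-out and IC50 from Hill fits.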

Protein sequences, listed by entry. Tags and fused reporters are not part of them. Residues count along the entry.
UniProt P10828, whole entry: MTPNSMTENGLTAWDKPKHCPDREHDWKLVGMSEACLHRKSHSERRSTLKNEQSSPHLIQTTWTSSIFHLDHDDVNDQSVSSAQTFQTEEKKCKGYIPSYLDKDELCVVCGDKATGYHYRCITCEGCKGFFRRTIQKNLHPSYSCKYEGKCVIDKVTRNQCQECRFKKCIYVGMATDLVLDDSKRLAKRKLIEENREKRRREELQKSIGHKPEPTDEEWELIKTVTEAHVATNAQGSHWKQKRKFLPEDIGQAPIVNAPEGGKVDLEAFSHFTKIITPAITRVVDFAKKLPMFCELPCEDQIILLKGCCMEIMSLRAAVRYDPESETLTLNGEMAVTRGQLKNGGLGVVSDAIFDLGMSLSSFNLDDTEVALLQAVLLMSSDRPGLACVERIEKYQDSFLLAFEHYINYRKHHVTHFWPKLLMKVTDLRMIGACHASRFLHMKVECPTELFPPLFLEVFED
UniProt Q12809, 1-548 isoform 6: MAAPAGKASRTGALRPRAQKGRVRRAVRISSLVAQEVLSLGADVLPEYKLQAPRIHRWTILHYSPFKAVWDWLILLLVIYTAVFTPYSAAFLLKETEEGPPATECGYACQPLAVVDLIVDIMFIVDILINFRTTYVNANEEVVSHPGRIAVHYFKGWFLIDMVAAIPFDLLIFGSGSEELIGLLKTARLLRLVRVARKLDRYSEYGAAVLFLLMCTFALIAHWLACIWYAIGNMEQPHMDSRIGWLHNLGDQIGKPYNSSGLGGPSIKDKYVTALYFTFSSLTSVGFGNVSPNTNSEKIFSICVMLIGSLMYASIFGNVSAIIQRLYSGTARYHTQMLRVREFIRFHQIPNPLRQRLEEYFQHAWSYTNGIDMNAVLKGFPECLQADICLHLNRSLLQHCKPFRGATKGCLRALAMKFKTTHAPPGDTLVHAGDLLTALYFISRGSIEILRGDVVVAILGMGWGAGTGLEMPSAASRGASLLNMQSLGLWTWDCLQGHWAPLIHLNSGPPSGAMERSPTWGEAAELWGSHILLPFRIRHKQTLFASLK
UniProt P01375, whole entry: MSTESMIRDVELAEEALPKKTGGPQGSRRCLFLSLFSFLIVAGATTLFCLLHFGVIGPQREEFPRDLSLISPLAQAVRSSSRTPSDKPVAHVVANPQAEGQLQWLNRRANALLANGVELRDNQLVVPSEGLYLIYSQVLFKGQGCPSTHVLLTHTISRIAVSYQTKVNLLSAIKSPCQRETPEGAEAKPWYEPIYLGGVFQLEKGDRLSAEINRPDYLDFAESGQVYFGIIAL

[2] = molecular target: Voltage-gated inwardly rectifying potassium channel KCNH2 (Homo sapiens) (UniProt Q12809); test: qHTS Assay for Small Molecule Inhibitors of the Human hERG Channel Activity (AID 588834); conditions: U2OS BacMam hERG, FluxOR thallium flux fluorescence; at 92.2 µM (top of the series);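 further: U2OS cells transduced with hERG by BacMam; top concentration of the series differs between compounds; on the % scale 0 is the no-effect control and ±100 the full control effect; lower thallium flux fluorescence means stronger hERG block; nearly all actives have a fitted effect of over 50% in size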
[3] = qHTS assay for small molecule activators of the p53 signaling pathway (AID 651743; active means well fitted activation curve with a large enough effect in the signal ratio, not every such curve was filed as active; the % refers to the signal ratio; further: % of control where 0% means no effect); conditions: HCT-116 p53RE-bla, beta-lactamase FRET ratio, 16 h; stronger effect = higher value
How it was run: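 Read-out is fluorescence intensity from the LiveBLAzer B/G FRET substrate, added for 2 hours at room temperature after HCT-116 p53RE-bla cells had been incubated with compounds for 16 hours at 37 C.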

[4] = qHTS assay for small molecule activators of the nuclear factor-kappa B (NF-kB) signaling pathway (AID 651749; active means well fitted activation curve with a large enough effect in the signal ratio; the % refers to the signal ratio; further: % of control where 0% means no effect); conditions: NF-kB-bla ME-180 cells, beta-lactamase FRET ratio, 16 h; stronger effect = higher value
Source text: National Center for Advancing Translational Sciences [NCATS] NIH Chemical Genomics Center [NCGC] U.S. Environmental Protection Agency [EPA] National Institutes of Environmental Health Sciences [NIEHS] National Toxicology Program [NTP] Assay Overview: Transcription factors and their stimulated target gene expression play pivotal roles across many cellular processes including responses to environmental stimuli. Proper regulation of associated pathways is critical to maintain cell health and function. Constitutive activation of transcription factor pathways has been implicated in tumors as it may block cellular functions such as apoptosis and lead to invasion and metastasis. One important transcription factor that stimulates gene expression in response to cytokines, UV radiation, and other stimuli is nuclear factor-kappa B (NF-kB). To measure activation of the NF-kB pathway, the NF-kB-bla ME-180 cell line stably expressed beta-lactamase reporter gene under the regulation of a NF-kB response element was obtained from Invitrogen. This assay allows measurement of the NF-kB pathway activity induced by compounds in a ME-180 cell line. This system quantitates NF-kB activity using a FRET-based assay system where beta-lactamase expression disrupts FRET, allowing for fluorescent measurement of activity.
Assay Protocol Summary: For toxicology screening, 2,000 cells in 5 uL/well were dispensed into black, clear-bottom 1536-well plates using a Multidrop Combi (Thermo Scientific) dispenser. Following transfer of 23 nL compound or DMSO vehicle by a pin tool, the plates were incubated 16 hr at 37C and 5% CO2.

[5] = qHTS assay for small molecule disruptors of the mitochondrial membrane potential - 1 hr assay (AID 651754; calls by dose curve; further: on the % scale 0 is the no-effect control and ±100 the full control effect; nearly all actives have a fitted effect of over 35% in size); conditions: HepG2 mitochondrial membrane potential, JC-1 ratio 590/535, 1 h; at 92.2 µM (top of the series)
How it was run: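 HepG2 cells, attached overnight, were exposed to compound for 1 hr at 37C, then stained 30 min with a potentiometric dye. Ratio of red aggregate (590nm) to green monomer (535nm) fluorescence reports membrane potential; collapse shifts signal toward green.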

[6] = qHTS assay for small molecule disruptors of the mitochondrial membrane potential - 5 hr assay (AID 651755; calls by dose curve; further: on the % scale 0 is the no-effect control and ±100 the full control effect; nearly all actives have a fitted effect of over 40% in size); conditions: JC-1-type ratio dye; at 92.2 µM (top of the series)
[7] = molecular target: Tumor necrosis factor (Homo sapiens) (UniProt P01375); test: qHTS assay to identify small molecules that stimulate Tumor Necrosis Factor-alpha (TNF-alpha) secretion (AID 651757; active means well fitted curve in the direction sought with a large enough effect in the signal ratio; the % refers to the signal ratio; further: 0% is about no effect); conditions: Human cells, HTRF 665/615 ratio; at 92.2 µM (top of the series)
Source text: National Center for Advancing Translational Sciences [NCATS]
NIH Chemical Genomics Center [NCGC]
National Institutes of Environmental Health Sciences [NIEHS]
National Toxicology Program [NTP]
Tumor Necrosis Factor-alpha (TNF-alpha), a secreted cytokine, plays an important role in inflammatory diseases and immune disorders. TNF-alpha, a 17 kDa cytokine, is mainly secreted by activated macrophages and monocytes in response to several inflammatory and immunological stimuli. To study the effect of environmental chemicals on TNF-alpha secretion, a homogeneous TNF-alpha assay was developed using Time Resolved fluorescence (HTRF) technology based on Time Resolved Fluorescent Resonance Energy Transfer (TR-FRET) (Leister et al., Current Chemical Genomics, 5:21-29, 2011). This assay allows measuring TNF-alpha secreted from the cells in a 1536-well plate format.
THP-1 cells were dispensed at 3000 cells/5ul/well in 1536-well white solid plates. After addition of 23 nl of compound, positive controls and DMSO only, the assay plates were incubated at 37 C for 17 hrs, followed by addition of 5 uLof mixture of cryptate labeled and XL665 labeled anti-TNF-alpha antibodies. After the assay plates were incubated at room temperature for 3 hr, the plates were measured by an EnVision plate reader.

[8] = qHTS assay to identify small molecules that stimulate interleukin-8 (IL-8) secretion (AID 651758; active means well fitted activation curve with a large enough effect in the signal ratio; the % refers to the signal ratio; further: 0% is about no effect); conditions: HTRF ratio (665/615); at 92.2 µM (top of the series)
How it was run: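 Secreted IL-8 measured by TR-FRET sandwich (cryptate and XL665 antibodies) from THP-1 cells exposed to compound overnight (16 hrs, 37 C).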

[9] = qHTS assay for environmental chemicals that activate the Aryl hydrocarbon Receptor (AhR) signaling pathway (AID 651777); conditions: 1A2-DRE human hepatoma cells, luciferase, 24 h; stronger effect = higher value; further: % of control where 0% means no effect; nearly all actives have a fitted effect of over 15% in size
How it was run: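 Induction of CYP1A2 transcription through AhR is detected by luciferase in 1A2-DRE hepatoma cells. Compounds or DMSO act for 24 hr at 37 C before a 30 min One-Glo step at room temperature.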

[10] = qHTS assay for small molecule agonists of the antioxidant response element (ARE) signaling pathway (AID 651741; active means well fitted activation curve with a large enough effect in the signal ratio; the % refers to the signal ratio; further: % of control where 0% means no effect); conditions: HepG2 ARE-bla reporter, beta-lactamase FRET ratio, 16 h; at 96 µM (top of the series)
How it was run: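 Quantitative HTS in HepG2 cells stably expressing an ARE-beta-lactamase reporter; 16 h compound exposure at 37 C, followed by 2 h room-temperature incubation with LiveBLAzer B/G FRET substrate and fluorescence measurement.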

ClCCOP(OCCCl)OCCCl
inactive: inhibition [1] -2.44% | activity change, negative = inhibition [2] 8.91% | activation [3] -1.07% | activation [4] -0.81% | ratio change, negative = depolarisation [5] 3.2% | ratio change, negative = disruption [6] 1.39% | activation (TNF-alpha secretion) [7] -0.0133% | activation [8] -10.9% | activation [9] -0.719%

CCOP(=O)(Cl)Cl
inactive: inhibition [1] -5.42% and 5.84% | activity change, negative = inhibition [2] 4.27% | activation [10] 7.15% and 5.84% | activation [3] 1.98% and 1.27% | activation [4] 1.05% and -0.428% | ratio change, negative = depolarisation [5] 1.07% | ratio change, negative = disruption [6] 4.39% | activation (TNF-alpha secretion) [7] -0.269% | activation [9] 0.025% and 0.0379%

O=[N+]([O-])c1ccccc1[N+](=O)[O-]
inactive: inhibition [1] 7.75% | activation [3] -5.19% | activation [4] -5.35% | activation [9] 4.19%

Reference: PubChem BioAssay (NCATS)
